The results in this text go back to ChEMBL document CHEMBL1128801, “Synthesis and biological evaluation of 14-alkoxymorphinans.12.1 A phenethyl analogue of the -selective opioid receptor antagonist cyprodime” (Bioorg Med Chem Lett, 1995).

The species named for one experiment is Mus musculus. Put plainly: In vitro evaluation of antagonist activity induced by naloxone on mouse vas deferens preparation.
A further experiment is filed under the species Cavia porcellus. Put plainly: In vitro evaluation of antagonistic activity induced by naloxone in guinea-pig ileum myenteric plexus preparation (GPI).

With `CN(C(=O)Cc1ccccc1)[C@H]1CC[C@@]2(CCCO2)C[C@@H]1N1CCCC1`, the Ke in the experiment filed under Mus musculus turned out to be 20.4 nM; in the experiment filed under Cavia porcellus, 9 nM.
